The source of these data is patent US20080260834A1, “VITAMIN D3 ANALOG LOADED POLYMER FORMULATIONS FOR CANCER AND NEURODEGENERATIVE DISORDERS” (priority 2002, published 2008).

For one data set, the system named is B16 (malignant melanoma). Kind of data set: In vitro proliferation assay, B16. It is filed as cell-based, murine. To be noted: at 10 nM against B16 (p<0.03).
Data set [1] deals with RENCA (renal cell carcinoma). The data set can be described thus: In vitro proliferation assay, RENCA. Format: cell-based, murine. To be noted: at 10 nM against RENCA (p<0.03).
Data set [2] concerns EMT6 (breast cell carcinoma). The data set can be described thus: In vitro proliferation assay, EMT6. Format: cell-based, murine. To be noted: at 100 nM against EMT6 (p<0.01).
Another data set relates to CT26 (colon carcinoma). Kind of data set: In vitro proliferation assay, CT26. Format: cell-based, murine. To be noted: at 1000 nM against CT26 (p<0.01, data not shown).
A short description of data set [3]: Calcemic activity, daily intraperitoneal injections in mice. It is filed as in vivo, C57/B16 mice. To be noted: for weight loss: 7 days; for blood ionized calcium: day 7.
A short description of data set [4]: Hypercalcemic toxicity of wafers, intraflank vs intracranial. To be noted: 5 mg pCPP:SA wafer loaded 0.1%. It is filed as in vivo,  mice.
The test system of a further data set is NGF. To be noted: 100 nM, 48 hours, L929 fibroblasts, p<0.03.
For data set [5] the following is noted: wafers loaded at 2.1% (w/w), 30% ethanol/70% phosphate buffer pH 7.4, 37° C.
The conditions of data set [6]: drug loading of pCPP:SA (20:80) wafers implanted in brain of mice; weight loss monitored.
The conditions of data set [7]: 10 mg pCPP:SA wafers loaded 0.5%, intracranial, 12 days.
The next data set relates to EMT6 breast carcinoma. To be noted: pCPP:SA wafers loaded 0.5% w/w in the flank.

Where two headings read alike, the source gives them in different places.

`C=C1/C(=C\C=C2/CCCC3(C)[C@@H]([C@H](C)OCCCC(O)(CC)CC)CC[C@@H]23)CC(O)C[C@H]1CO` (stereo partly shown) [MCW-005-YB]: the antiproliferative activity result (in the data set with B16 (malignant melanoma); in data set [1]; in data set [2]; in the data set on CT26 (colon carcinoma)) was “significant antiproliferative activity” throughout. In addition, the weight loss entry was “no weight loss” in [3] (1 mg/kg/day i.p.); “no weight loss” in data set [3] (10 mg/kg/day i.p.); “no weight loss” in data set [3] (100 mg/kg/day i.p.); “no significant weight loss” in data set [4] (intracranial, 7 days); “no weight loss” in [7]. Besides, the blood ionized calcium result in data set [3] (1 mg/kg/day i.p.), in [3] (10 mg/kg/day i.p.) and in [3] (100 mg/kg/day i.p.) was “no weight loss or significant rise in blood ionized calcium” each time. Moreover, the “signs of toxic hypercalcemia” value in [4] (intracranial) and in data set [4] (intraflank) was “no signs of toxic hypercalcemia” each time. For the same molecule, the “blood ionized calcium levels” value in data set [4] (intracranial, day 7) is “no significant weight loss or rises in blood ionized calcium levels”. Further, in the data set on NGF, the “increase in NGF expression compared to solvent controls” value worked out at 40%. Besides, the “period of continuous drug release” value in [5] was 110 h. In data set [5] (110 hours), the “drug release (total)” value is listed as 50.2%. Moreover, the highest tolerated dose in data set [6] is given as 1%. In addition, the “toxicity in the treatment arm” value in the data set with EMT6 breast carcinoma is listed as “unexpected lethal toxicity”. Besides, the “growth of EMT6 solid tumors” value in the data set with EMT6 breast carcinoma (not statistically significant) is recorded as “inhibits the growth of EMT6 solid tumors”.
As to `C=C1/C(=C\C=C2/CCC[C@]3(C)[C@@H]([C@H](C)/C=C/C=C/C(O)(CC)CC)CC[C@@H]23)CC(O)C[C@H]1CO` (stereo partly shown) [MCW-068-Y-EE], the antiproliferative activity result (with B16 (malignant melanoma); in data set [1]; in data set [2]; in the data set on CT26 (colon carcinoma)) was “significant antiproliferative activity” throughout.
